Experiments:
[1] = molecular target: PTH receptor present on the SaOS-2 (human osteosarcoma cells) (human (SaOS-2 human osteosarcoma cells)) (UniProt Q03431)
[2] = molecular target: PTH receptor present on the SaOS-2 (human osteosarcoma cells) (human (SaOS-2 human osteosarcoma cells)) (UniProt Q03431); test: displacement of mono-125I-[Nle8,18,Tyr34(3-125I)]bPTH(1-34)NH2 from SaOS-2 cells; Kd defined as half maximal inhibition

Substance	EC50 (half maximal stimulation of adenylate cyclase, cAMP synthesis in SaOS-2 cells) [1] [nM]	Kd [2] [nM]
[Cha^22, Ahc^23, Glu^25, Lys^26,30, Leu^28,31, Aib^29]hPTHrP(1-34)NH2 (from UniProt P12272) (peptide)	0.4	
[Cha^22, Leu^23,28,31, Glu^25, Lys^26,30, Ahc^27, Aib^29]hPTHrP(1-34)NH2 (from UniProt P12272) (peptide)	2	60
[Glu^22,25,29, Leu^23,28,31, Lys^26, Ahc^30]hPTHrP(1-34)NH2 (from UniProt P12272) (peptide)	20	230
[Glu^22,25, Leu^23,28,31, Lys^26,30, Ahc^27, Aib^29]hPTHrP(1-34)NH2 (from UniProt P12272) (peptide)	3	230
[Glu^22,25, Leu^23,31, Lys^26,30, Ahc^28, Aib^29]hPTHrP(1-34)NH2 (from UniProt P12272) (peptide)	0.5	
[Glu^22,29, Leu^23,28,31, Aib^25, Lys^26,30, Ahc^27]hPTHrP(1-34)NH2 (from UniProt P12272) (peptide)	5	

Further lines, results first:

EC50 (half maximal stimulation of adenylate cyclase, cAMP synthesis in SaOS-2 cells) [1] [nM]	Kd [2] [nM]	Substance
0.3		[Ahc^22, Leu^23,28,31, Glu^25, Lys^26,30, Aib^29]hPTHrP(1-34)NH2 (from UniProt P12272) (peptide)
3.9	70	[Glu^22,25, Ahc^23, Lys^26,30, Leu^28,31, Aib^29]hPTHrP(1-34)NH2 (from UniProt P12272) (peptide)
0.5	6	[Glu^22,25, Leu^23,28,31, Ahc^24, Lys^26,30, Aib^29]hPTHrP(1-34)NH2 (from UniProt P12272) (peptide)
3.7	200	[Glu^22,25, Leu^23,28, Lys^26,30, Aib^29, Ahc^31]hPTHrP(1-34)NH2 (from UniProt P12272) (peptide)
2		[Glu^22, Leu^23,28,31, Aib^25,29, Lys^26,30, Ahc^27]hPTHrP(1-34)NH2 (from UniProt P12272) (peptide)

Reference: patent USRE40850E1
